{"sequences": {"note": "By UniProt entry, the sequences of proteins in these tests, tags left out. Where a name states a change or a piece, a line headed by the entry shows the natural chain unless it says otherwise.", "UniProt P00352": "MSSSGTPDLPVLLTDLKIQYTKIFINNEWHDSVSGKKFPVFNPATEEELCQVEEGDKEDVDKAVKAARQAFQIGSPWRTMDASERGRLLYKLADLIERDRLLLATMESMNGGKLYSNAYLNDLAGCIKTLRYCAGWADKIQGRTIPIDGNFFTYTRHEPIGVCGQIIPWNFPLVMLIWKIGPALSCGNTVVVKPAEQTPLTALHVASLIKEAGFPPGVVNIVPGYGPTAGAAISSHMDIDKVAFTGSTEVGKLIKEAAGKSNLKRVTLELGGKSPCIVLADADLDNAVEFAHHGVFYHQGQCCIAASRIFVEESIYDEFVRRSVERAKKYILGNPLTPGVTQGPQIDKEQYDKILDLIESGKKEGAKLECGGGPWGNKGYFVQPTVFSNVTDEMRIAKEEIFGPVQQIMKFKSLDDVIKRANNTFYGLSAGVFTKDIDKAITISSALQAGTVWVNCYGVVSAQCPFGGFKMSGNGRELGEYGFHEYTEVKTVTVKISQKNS"}, "source": "PubChem BioAssay AID1030", "about": "(National Center for Advancing Translational Sciences (NCATS), 2008)", "note": "In all, about 220,000 compounds went through this assay and about 16,000 (7.3%) were called active. Only results without a clear call are listed here; the source files them as inconclusive. The call rests on the fitted dose curve; in most records, active means well fitted inhibition curve with a large enough effect (not every such curve was filed as active); inconclusive means small, poorly fitted or top-dose-only effect, or another doubt; inactive means no such curve, though single readings can be large or run the other way. Potency means the concentration at half of the fitted maximal effect."}
{"target": "Aldehyde dehydrogenase 1A1 (Homo sapiens) (UniProt P00352)", "assay": "qHTS Assay for Inhibitors of Aldehyde Dehydrogenase 1 (ALDH1A1)", "conditions": "Purified ALDH1A1, NADH fluorescence, propionaldehyde substrate"}
{"smiles": "c1ccc(-c2nn[nH]n2)c(-c2nn[nH]n2)c1", "Potency": "inconclusive: 0.316 µM"}
{"smiles": "O=C(NC1CCS(=O)(=O)C1)NP(=S)(Oc1ccccc1)Oc1ccccc1", "note": "(configuration not stated)", "Potency": "inconclusive: 10 µM"}
{"smiles": "C(Cc1nn[nH]n1)Cc1nn[nH]n1", "Potency": "inconclusive: 22.4 µM"}
{"smiles": "Cc1cc([N+](=O)[O-])cc([N+](=O)[O-])c1O", "Potency": "inconclusive: 11.2 µM"}
{"smiles": "CC(=O)C1=CCCC2CCC1N2", "note": "(configuration not stated)", "Potency": "inconclusive: 1.41 µM"}
{"smiles": "Cc1ccc(NP(=O)(Oc2ccccc2)Oc2ccccc2)nc1", "Potency": "inconclusive: 37.7 µM"}
{"smiles": "Nc1cccc2ccc([As](=O)(O)O)cc12", "Potency": "inconclusive: 25.1 µM"}
{"smiles": "O=C(NC(Sc1ccncn1)C(Cl)(Cl)Cl)c1ccccc1", "note": "(configuration not stated)", "Potency": "inconclusive: 28.2 µM"}
{"smiles": "Cc1c2non([O-])c-2c(C)[n+](=O)[n+]1[O-]", "Potency": "inconclusive: 25.1 µM"}
{"smiles": "O=[As]c1ccc(S(=O)(=O)NCCO)cc1", "note": "(configuration not stated)", "Potency": "inconclusive: 7.08 µM"}
{"smiles": "CN(N=O)C(=N)N[N+](=O)[O-]", "Potency": "inconclusive: 35.5 µM"}
{"smiles": "CN(CCCl)Cc1cc(Cl)c(NC2=NCCN2)c(Cl)c1", "Potency": "inconclusive: 44.7 µM"}
{"smiles": "CC1CCC(C(C)C)C(OP(=O)(Nc2ccccn2)c2ccccc2)C1", "note": "(configuration not stated)", "Potency": "inconclusive: 11.2 µM"}
{"smiles": "NC(=O)Nc1ccc([As](=O)(O)O)cc1", "Potency": "inconclusive: 31.6 µM"}
{"smiles": "Cc1ccc(NCCc2c([N+](=O)[O-])cc([N+](=O)[O-])cc2[N+](=O)[O-])cc1", "Potency": "inconclusive: 28.2 µM"}
{"smiles": "CN(C(=O)Cc1ccc(Cl)c(Cl)c1)[C@@H]1CC[C@]2(CCCO2)C[C@H]1N1CCCC1", "Potency": "inconclusive: 28.2 µM"}
{"smiles": "COc1cc(C(=O)NCC2(N3CCOCC3)CCCCC2)cc(Cl)c1OC(C)C", "Potency": "inconclusive: 31.6 µM"}
